For data set [1] the following is noted: male rats, gavage 160 mg/kg, 24 h; DMAE pre-treatment 500 mg/kg, 1 h prior.
The conditions of data set [2]: female mice, gavage 160 mg/kg, 24 h, listed as [^14C]choline.

SMILES strings stand for the structures. Where two headings read alike, the source gives them in different places.

Regarding `C[N+](C)(C)CCO` [choline, N,N,N-trimethylaminoethanol], the “% Dose Recovered, Feces” value in data set [1] was 11.2 ± 8.40 % dose; in data set [2] (DMAE pre-treatment 500 mg/kg, 1 h prior) it was 11.2 ± 5.90 % dose. Moreover, the “% Dose Recovered, Total Recovered” value in data set [2] (DMAE dose 0, 160 mg/kg) was 80.8 ± 16.7 % dose.

Values taken from PMC7252906 (Toxicology and applied pharmacology, 2019).
